The values below are quoted from earlier work in patent publication EP2992879B1, “PHARMACEUTICAL COMPOSITION FOR […] OF MOTOR NEURONS AND USE THEREOF” (China Medical University, priority 2012, dated 2014).

For this data set, the system named is SOD1-G93A transgenic mice. To be noted: SOD1-G93A transgenic mice treated with Riluzole; from Amyotrophic Lateral Sclerosis. 2009; 10: 85-94; cited from earlier work.

In the case of `Nc1nc2ccc(OC(F)(F)F)cc2s1` [Riluzole], the mice survived is 140 days.
